# Measured values as given in patent US6664442B2, “Selecting compounds to reduce inflammation associated with Alzheimer's disease” (Elan Pharmaceuticals, Inc., priority 2000, dated 2003).
# Chains of the proteins cited; added tags and fusions are not shown. Lines headed by an entry give the natural chain unless they say otherwise; changes in a name come on top.
# UniProt P05067: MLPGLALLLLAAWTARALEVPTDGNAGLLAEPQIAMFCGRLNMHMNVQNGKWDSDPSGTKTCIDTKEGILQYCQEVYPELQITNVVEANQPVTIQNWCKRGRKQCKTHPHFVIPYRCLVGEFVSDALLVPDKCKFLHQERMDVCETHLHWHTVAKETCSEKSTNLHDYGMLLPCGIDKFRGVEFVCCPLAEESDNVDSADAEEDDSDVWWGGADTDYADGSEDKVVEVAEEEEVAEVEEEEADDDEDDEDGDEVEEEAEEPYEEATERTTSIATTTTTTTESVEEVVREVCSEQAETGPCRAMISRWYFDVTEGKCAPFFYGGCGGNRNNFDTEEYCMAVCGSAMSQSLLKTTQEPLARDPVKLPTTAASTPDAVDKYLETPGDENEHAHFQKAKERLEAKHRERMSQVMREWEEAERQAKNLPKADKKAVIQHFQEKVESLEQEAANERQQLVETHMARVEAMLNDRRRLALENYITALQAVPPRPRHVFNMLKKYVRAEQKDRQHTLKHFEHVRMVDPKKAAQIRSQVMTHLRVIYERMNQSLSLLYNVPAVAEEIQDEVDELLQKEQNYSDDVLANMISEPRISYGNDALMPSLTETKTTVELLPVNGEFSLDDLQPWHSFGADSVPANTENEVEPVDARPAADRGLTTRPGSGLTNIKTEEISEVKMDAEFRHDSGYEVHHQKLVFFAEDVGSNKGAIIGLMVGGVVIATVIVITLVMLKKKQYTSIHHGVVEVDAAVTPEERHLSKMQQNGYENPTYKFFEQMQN
# Columns and labels:
# Format in all cases: in vivo, mouse
# Conditions in all cases: tissue not given
# IFN-γ = assay: mRNA expression of IFN-γ in PDAPP mice immunized with Aβ1-42 or a fragment, quantitative RT-PCR
# From the text: (§1) RNA was isolated from brain tissues using the S.N.A.P.™ Total RNA Isolation Kit (Invitrogen, Carlsbad, Calif.) according to manufacturer's instructions, with the following modifications: the tissue was homogenized for 20 seconds using a rotor-stator homogenizer (Fisher Scientific). The DNA digestion step was repeated a second time following isopropanol precipitation.
# (§2) Quantitative PCR assays were run on a Perkin Elmer 7700 Sequencer using methods and materials provided by Perkin Elmer (Applied Biosystems Division, Foster City, Calif.). Primers and fluorescent probes were obtained from Perkin Elmer; the sequences and concentrations of primers and probes used for the various assays are listed in Table 1 below. PCR reactions were set up using approximately 300 nM concentrations of each of the forward and reverse primers, 100 nM probe and RNA extracted from the tissue of interest (20 ng). Each reaction also included a standard RNA for comparison. Data were normalized to total RNA or to GAPDH. […] Sample results were normalized to the amount of RNA measured by OD and or control message (e.g., GAPDH).
# (§3) The results are presented below in Table 5 as a ratio of mRNA of Aβ-treated mice to non-Aβ-treated mice. […] Thus, the efficacy of Aβ-treatment can be assessed by comparing the mRNA expression of such markers.
# CD4 = assay: mRNA expression of CD4 in PDAPP mice immunized with Aβ1-42 or a fragment, quantitative RT-PCR
# From the text: as §1, §2, §3
# MCP-1 = assay: mRNA expression of MCP-1 in PDAPP mice immunized with Aβ1-42 or a fragment, quantitative RT-PCR
# From the text: as §1, §2, §3
# Igk = assay: mRNA expression of Igk in PDAPP mice immunized with Aβ1-42 or a fragment, quantitative RT-PCR
# From the text: as §1, §2, §3
substance,measurement,setting,value
"Aβ1-12: fragment of Aβ1-42 used to immunize PDAPP mice (DAEFRHDSGYEV; Amyloid-beta protein 42; UniProt P05067 672-683, looked up, fragment)","IFN-γ mRNA, ratio of Aβ-treated mice to non-Aβ-treated mice",IFN-γ,.43X
same,"CD4 mRNA, ratio of Aβ-treated mice to non-Aβ-treated mice",CD4,0.59X
same,"MCP-1 mRNA, ratio of Aβ-treated mice to non-Aβ-treated mice",MCP-1,0.43X
same,"Igk mRNA, ratio of Aβ-treated mice to non-Aβ-treated mice",Igk,1.89X
